Measured values as given in US9186402B2 (dated 2015).

Sequences of proteins named here, by UniProt entry; tags and fusion partners are left off.
UniProt Q92769, whole entry: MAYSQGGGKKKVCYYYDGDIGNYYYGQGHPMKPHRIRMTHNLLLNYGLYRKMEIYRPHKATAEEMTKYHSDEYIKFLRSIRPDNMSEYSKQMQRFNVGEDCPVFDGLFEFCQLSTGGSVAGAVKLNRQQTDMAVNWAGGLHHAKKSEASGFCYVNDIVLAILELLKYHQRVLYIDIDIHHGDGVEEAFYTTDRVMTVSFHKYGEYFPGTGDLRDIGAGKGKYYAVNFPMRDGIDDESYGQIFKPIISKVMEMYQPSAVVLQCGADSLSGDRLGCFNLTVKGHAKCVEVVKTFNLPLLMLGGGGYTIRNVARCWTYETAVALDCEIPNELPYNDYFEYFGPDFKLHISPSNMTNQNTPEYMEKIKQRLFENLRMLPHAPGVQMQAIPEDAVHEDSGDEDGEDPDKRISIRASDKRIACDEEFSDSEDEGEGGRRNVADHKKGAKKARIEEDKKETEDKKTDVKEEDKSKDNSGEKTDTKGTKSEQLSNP

Target: HDAC2 (Homo sapiens, UniProt Q92769)
Test: HDAC2 inhibition, trypsin-coupled kinetic fluorescence homogeneous assay
Type: biochemical

## CC(C)[C@@H]1NC(=O)[C@]2(C)CSC(=N2)c2csc(n2)CNC(=O)C[C@@H](/C=C/CCS)NC1=O [ab6_123a amide thiol]
  IC50: 11.1 nM
